The test system of series [1] is pain following bunionectomy. As to the kind of experiment: Randomized, double-blind, placebo-controlled, 5-arm study of Compound 1 in subjects with pain following bunionectomy (Example 4). As to conditions: Compound 1 high-dose group (100 mg first dose, then 50 mg q12h), HB/APAP 5 mg/325 mg q6h.
Series [2] has as its system acute pain after a bunionectomy. Description: Randomized, double-blind, placebo-controlled, 3-arm study of Compound 1 in acute pain after a bunionectomy (Example 5). The note with it: Compound 1 100 mg first dose.
For series [3], the system named is acute pain after an abdominoplasty. As to the kind of experiment: Randomized, double-blind, placebo-controlled, 3-arm study of Compound 1 in acute pain after an abdominoplasty (Example 6). The note with it: Compound 1 100 mg first dose.
The mark [4] stands for this setting: then 50 mg q12 h (N = 426), HB/APAP 5 mg/325 mg q6 h (N = 431).
Where [5] appears, read: then 50 mg q12 h (N = 447), HB/APAP 5 mg/325 mg q6 h (N = 448).

These results are taken from patent US20250186419A1, “DOSING REGIMENS FOR TREATING PAIN” (VERTEX PHARMACEUTICALS INCORPORATED, priority 2023, published 2025).

SMILES strings stand for the structures.

For the compound `COc1c([C@H]2[C@H](C(=O)Nc3ccnc(C(N)=O)c3)O[C@@](C)(C(F)(F)F)[C@H]2C)ccc(F)c1F` [Compound 1, (2R,3S,4S,5R)-4-[[3-(3,4-difluoro-2-methoxy-phenyl)-4,5-dimethyl-5-(trifluoromethyl)tetrahydrofuran-2-carbonyl]amino]pyridine-2-carboxamide], in series [1], the “Incidence of headache (adverse event)” value came to 8% and the “Incidence of nausea (adverse event)” value worked out at 8%. Also, in series [2] (setting [4]), the “Proportion of subjects achieving ≥2-point reduction in NPRS from baseline” value amounted to 90.1% and the “Time to ≥2-point reduction in NPRS from baseline (min), Median” value is 240 min. For the same compound, in series [2] (then 50 mg q12 h (n = 426), HB/APAP 5 mg/325 mg q6 h (n = 431)), the “% reduction from baseline in mean NPRS at 48 hours” value turned out to be 51%. Moreover, the “SPID48, LS mean (SE)” value in series [2] (NPRS 0 to 48 hours, oral, then 50 mg q12 h (n = 426), HB/APAP 5 mg/325 mg q6 h (n = 431)) is recorded as 99.9 (4.5). Besides, in series [3] (setting [5]), the “Proportion of subjects achieving ≥2-point reduction in NPRS from baseline” value came out at 90.6% and the “Time to ≥2-point reduction in NPRS from baseline (min), Median, 95% CI” value was 119 (90, 180) min. Also, in series [3] (then 50 mg q12 h (n = 447), HB/APAP 5 mg/325 mg q6 h (n = 448)), the “% reduction from baseline in mean NPRS at 48 hours” value was found to be 47%. In series [3] (NPRS 0 to 48 hours, oral, then 50 mg q12 h (n = 447), HB/APAP 5 mg/325 mg q6 h (n = 448)), the “SPID48, LS mean (SE)” value was 118.4 (4.3).
